Laboratory results: patent US12435057B2, “Triazole carboxylic acids as LPA antagonists” (BRISTOL-MYERS SQUIBB COMPANY, priority 2019, dated 2025)

Chains of the proteins cited; added tags and fusions are not shown.
UniProt Q92633, whole entry: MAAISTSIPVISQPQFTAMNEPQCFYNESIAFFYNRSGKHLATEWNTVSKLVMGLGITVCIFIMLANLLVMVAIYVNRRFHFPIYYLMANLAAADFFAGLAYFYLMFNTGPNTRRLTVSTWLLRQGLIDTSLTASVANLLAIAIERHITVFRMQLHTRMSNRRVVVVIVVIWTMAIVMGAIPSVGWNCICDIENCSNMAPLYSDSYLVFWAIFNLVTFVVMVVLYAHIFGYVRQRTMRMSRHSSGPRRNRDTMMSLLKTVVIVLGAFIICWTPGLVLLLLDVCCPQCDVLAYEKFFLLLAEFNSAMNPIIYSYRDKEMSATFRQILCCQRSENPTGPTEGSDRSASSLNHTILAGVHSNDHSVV

Target: human LPA1 (Homo sapiens, UniProt Q92633)
Assay: LPA1 functional antagonist assay (calcium flux)
Settings: read-out: hLPA1 IC50; CHO cells overexpressing human LPA1; inhibition of calcium flux induced by 10 nM LPA
Procedure: The effectiveness of compounds of the present invention as LPA1 inhibitors can be determined in an LPA1 functional antagonist assay as follows: • Chinese hamster ovary cells overexpressing human LPA1 were plated overnight (15,000 cells/well) in poly-D-lysine coated 384-well microplates (Greiner bio-one, Cat #781946) in DMEM/F12 medium (Gibco, Cat #11039). Following overnight culture, cells were loaded with calcium indicator dye (AAT Bioquest Inc, Cat #34601) for 30 minutes at 37° C. The cells were then equilibrated to room temperature for 30 minutes before the assay. Test compounds solubilized in DMSO were transferred to 384 well non-binding surface plates (Corning, Cat #3575) using the Labcyte Echo acoustic dispense and diluted with assay buffer [[…] with calcium/magnesium (Gibco Cat #14025-092), 20 mM HEPES (Gibco Cat #15630-080) and 0.1% fatty acid free BSA (Sigma Cat #A9205)] to a final concentration of 0.5% DMSO. Diluted compounds were added to the cells by FDSS6000 (Hamamatsu) at final concentrations ranging from 0.08 nM to 5 μM. and were then incubated for 20 min at room temperature at which time LPA (Avanti Polar Lipids Cat #857130C) was added at final concentrations of 10 nM to stimulate the cells. […] IC50 values were determined by fitting data to a 4-parameter logistic equation (GraphPad Prism, San Diego CA). b. […]

**Q.** Which IC50 does the source give for `Cc1nc(-c2nnn(C)c2COC(=O)N(C)CC2CCC2)ccc1O[C@@H]1CCO[C@H](C(=O)O)C1` (relative stereo) here?
**A.** 682 nM
